Values of other authors in patent US20090264855A1.

Details: simple diffusion, citrate buffer at pH 5; cited from earlier work

For `CCC(=O)N(c1ccccc1)C1(COC)CCN(CCc2cccs2)CC1`, which plasma concentration is on record?
The plasma concentration was “did not produce any detectable plasma concentration”.

Only a part of the results on these compounds is given; other tests are left out.
